## Apparent affinities of Ab-14 variants for a coronavirus HR2 peptide

The target is the same throughout: PDVDLGDISGINAS, from the HR2 region of SARS-CoV-2 spike.

Each scFv is VH, three GGGGS repeats, VL, as in the parent Ab-14, and differs from it in the CDRs of the heavy chain only.
VH: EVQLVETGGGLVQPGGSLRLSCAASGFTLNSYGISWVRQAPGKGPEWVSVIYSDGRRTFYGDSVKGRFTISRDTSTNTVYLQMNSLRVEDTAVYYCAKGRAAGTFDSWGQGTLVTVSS
VL: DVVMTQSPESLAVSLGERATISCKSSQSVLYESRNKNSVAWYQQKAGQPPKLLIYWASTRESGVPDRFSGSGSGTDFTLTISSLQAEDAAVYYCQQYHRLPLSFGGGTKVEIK

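The parent was found by panning a naive human phage display library on the peptide. In library AAYL49, one, two or three CDR residues were substituted; doubles and triples were drawn at random. The scFvs were displayed on barcoded MATa yeast, the peptide on MATalpha yeast. After mating in shaken culture at 30 °C for 16 h, diploids were selected and their barcode pairs sequenced. Each replicate has its own calibration line, from reference interactions of the BCL2 family. Mating was done three times.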

Changes read parent residue, position, new residue, counted from the first residue of the VH shown.
This list gathers variants with a substitution at G33 (VH, numbered from residue 1).
Affinities are written as log10 Kd with Kd in nM; a lower number is a better binder.
Where no diploid with the target was found in that replicate, the entry reads "ND": below detection, most likely a poor binder, though not proof of it.
Three control strains display no target. For library AAYL49, 15% of the pairings with them gave a signal, with a median of 4.06 and one signal in twenty below 2.83, so weak values seen in few replicates may be background.

F27Y G33S Y52H: ND, ND, ND.
T28Y G33M S53H: ND, 3.46, ND.
G33C G99W: ND, ND, ND.
L29G G33A R56T: ND, 3.26, 5.41.
G26W G33R V50D: ND, ND, ND.
G33D T58L Y60R: ND, 4.51, ND.
G33A G61H G99R: ND, 4.40, ND.
T28L G33L A101W: 3.87, 4.22, 5.29.
G26N G33I Y60Q: 3.94, 3.46, 3.96.
T28F G33P S63Y: ND, 3.95, 5.64.
N30W G33E D106R: ND, ND, ND.
G33A R56Y G61K: ND, ND, 3.93.
G33P R56M A102H: ND, 4.17, ND.
G33V G55K V64Q: ND, ND, ND.
L29D G33Y: 4.79, ND, ND.
G33Y I51S D106Q: ND, ND, ND.
G33N Y52W F105G: 4.60, 4.74, 5.98.
G33H S53M F59G: ND, ND, ND.
L29P G33F V50G: ND, ND, 4.84.
G33S S53V D54A: ND, 3.81, 5.48.
G33E D62Q F105R: ND, ND, 5.17.
G33N: ND, ND, ND.
G33V R56F V64K: ND, ND, ND.
G33A S63A F105D: ND, ND, ND.
G33F V64L: ND, ND, ND.
S31M G33R Y52P: 4.05, ND, ND.
L29H G33V K65L: ND, ND, 4.81.
L29I G33L R56Y: ND, ND, ND.
F27N G33Y G61V: 4.48, 4.04, 5.54.
G33A I34F K65F: ND, ND, ND.
G33W S35V R57Y: 6.23, 3.75, ND.
G33P V50K D54A: ND, ND, 3.58.
T28C G33N F105A: ND, ND, ND.
G33N Y52L D54I: ND, ND, ND.
G33H F59I: ND, ND, ND.
G26S G33S S35Q: ND, ND, ND.
T28V G33I D106I: 3.74, 2.71, ND.
G33W R100I: ND, 3.95, ND.
N30P G33T R57G: ND, ND, ND.
G33E S107T: ND, ND, ND.
G33F D62L G99L: ND, ND, ND.
G33P G61E R100D: ND, 3.03, ND.

Excerpt, the final 4 entries:

changes	log10 Kd (nM) by replicate
N30P G33T R57G	ND, ND, ND
G33E S107T	ND, ND, ND
G33F D62L G99L	ND, ND, ND
G33P G61E R100D	ND, 3.03, ND

From the AlphaSeq antibody data of Engelhart et al. 2022 (doi:10.1038/s41597-022-01779-4), copy in the FLAb collection.